Laboratory results taken from PubChem BioAssay AID1020 (Sanford-Burnham Center for Chemical Genomics, 2008).
The entries are a selection whose mix differs from that of the whole data set. Some tests of the compounds listed are not included; inactive here does not mean inactive elsewhere. Activity calls are given as the source filed them. Cut-off read from the data, not from the text of the source: active = inhibition above about 50%; inactive = the rest.

system: glucose-6-phosphate dehydrogenase [Leuconostoc mesenteroides]; test: bacterial G6PDH enzyme inhibition, coupled readout – biochemical, Leuconostoc mesenteroides enzyme, counter-screen for G6PDH-coupled screening assays (AID 1020); settings: Purified L. mesenteroides G6PDH, diaphorase/resazurin coupled fluorescence, 45 min; at 5 µM; active compounds read high

Row | Compound | inhibition
1 | COc1cccc(C(=O)NCC2(N3CCCCC3)CCCCC2)c1 | inactive: 7.6%
2 | O=C(OC1CN2CCC1CC2)C(CO)(c1ccccc1)c1ccccc1 (centres undefined) | inactive: 8.6%
3 | CN(C)c1cccc(C(=O)NCC2(N(C)C)CCCCC2)c1 | inactive: 4.7%
4 | O=C(NCC1(N2CCCCC2)CCCCC1)c1cc([N+](=O)[O-])ccc1Cl | inactive: 3.3%
5 | CC(C)N1C(=O)CC2(CCN(CCOC(=O)C(O)(c3ccccc3)c3ccccc3)CC2)C1=O | inactive: -0.9%
6 | Cc1ccccc1C(=O)NCC1(N2CCCCC2)CCCCC1 | inactive: 0.3%
7 | CN(C)C1CCCC1OC(=O)C(O)(c1ccccc1)c1ccccc1 (centres undefined) | inactive: 19.8%
8 | C=CCN1CCN(CCOC(=O)C(O)(c2ccccc2)c2ccccc2)CC1 | inactive: 8.9%
9 | CCN1CCCC(OC(=O)C2(O)c3ccccc3C=Cc3ccccc32)C1 (centres undefined) | inactive: 9.3%
